Each structure is given as a SMILES string. Where two headings read alike, the source gives them in different places. Some results are limits rather than exact numbers.

Sequences of proteins named here, by UniProt entry; tags and fusion partners are left off. Residues count along the entry.
UniProt P27487, 37-766 R125K: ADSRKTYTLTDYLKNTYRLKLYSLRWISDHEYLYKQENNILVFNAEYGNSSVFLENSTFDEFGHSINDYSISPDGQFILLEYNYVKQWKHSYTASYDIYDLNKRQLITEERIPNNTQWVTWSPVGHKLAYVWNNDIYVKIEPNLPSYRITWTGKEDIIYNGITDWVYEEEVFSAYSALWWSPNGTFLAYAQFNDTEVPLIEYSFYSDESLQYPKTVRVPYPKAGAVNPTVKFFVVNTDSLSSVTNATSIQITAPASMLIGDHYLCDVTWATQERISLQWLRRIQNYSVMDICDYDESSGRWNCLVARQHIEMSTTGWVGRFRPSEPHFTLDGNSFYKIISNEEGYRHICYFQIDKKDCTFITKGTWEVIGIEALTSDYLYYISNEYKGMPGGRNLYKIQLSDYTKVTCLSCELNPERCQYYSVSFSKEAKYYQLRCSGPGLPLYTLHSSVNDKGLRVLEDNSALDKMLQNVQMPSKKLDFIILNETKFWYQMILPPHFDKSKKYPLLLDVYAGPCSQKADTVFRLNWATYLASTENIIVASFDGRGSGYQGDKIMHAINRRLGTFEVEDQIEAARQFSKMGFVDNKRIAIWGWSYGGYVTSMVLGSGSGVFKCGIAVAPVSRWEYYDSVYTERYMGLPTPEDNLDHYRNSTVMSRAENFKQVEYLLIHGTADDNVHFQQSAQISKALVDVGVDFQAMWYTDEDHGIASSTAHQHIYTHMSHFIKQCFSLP
UniProt P27487, 37-766 N710Q: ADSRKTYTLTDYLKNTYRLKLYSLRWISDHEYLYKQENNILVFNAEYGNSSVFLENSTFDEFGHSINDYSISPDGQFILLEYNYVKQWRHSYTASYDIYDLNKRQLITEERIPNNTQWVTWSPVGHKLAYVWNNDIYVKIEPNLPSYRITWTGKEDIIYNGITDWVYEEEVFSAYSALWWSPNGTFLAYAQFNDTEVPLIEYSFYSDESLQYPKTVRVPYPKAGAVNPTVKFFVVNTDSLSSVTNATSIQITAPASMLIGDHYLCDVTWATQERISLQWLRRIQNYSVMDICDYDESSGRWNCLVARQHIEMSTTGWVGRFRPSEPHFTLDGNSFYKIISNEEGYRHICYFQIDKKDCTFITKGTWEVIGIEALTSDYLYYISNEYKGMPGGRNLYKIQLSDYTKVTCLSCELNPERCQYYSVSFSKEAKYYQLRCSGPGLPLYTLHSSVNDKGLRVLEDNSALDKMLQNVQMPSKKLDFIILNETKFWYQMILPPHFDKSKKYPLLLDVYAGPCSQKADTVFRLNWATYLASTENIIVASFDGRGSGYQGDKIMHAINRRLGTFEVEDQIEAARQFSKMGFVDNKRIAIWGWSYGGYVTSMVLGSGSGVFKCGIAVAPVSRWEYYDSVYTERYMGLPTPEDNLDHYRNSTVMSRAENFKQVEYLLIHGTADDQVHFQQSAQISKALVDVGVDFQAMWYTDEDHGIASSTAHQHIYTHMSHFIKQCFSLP
UniProt P27487, 37-766 E206A: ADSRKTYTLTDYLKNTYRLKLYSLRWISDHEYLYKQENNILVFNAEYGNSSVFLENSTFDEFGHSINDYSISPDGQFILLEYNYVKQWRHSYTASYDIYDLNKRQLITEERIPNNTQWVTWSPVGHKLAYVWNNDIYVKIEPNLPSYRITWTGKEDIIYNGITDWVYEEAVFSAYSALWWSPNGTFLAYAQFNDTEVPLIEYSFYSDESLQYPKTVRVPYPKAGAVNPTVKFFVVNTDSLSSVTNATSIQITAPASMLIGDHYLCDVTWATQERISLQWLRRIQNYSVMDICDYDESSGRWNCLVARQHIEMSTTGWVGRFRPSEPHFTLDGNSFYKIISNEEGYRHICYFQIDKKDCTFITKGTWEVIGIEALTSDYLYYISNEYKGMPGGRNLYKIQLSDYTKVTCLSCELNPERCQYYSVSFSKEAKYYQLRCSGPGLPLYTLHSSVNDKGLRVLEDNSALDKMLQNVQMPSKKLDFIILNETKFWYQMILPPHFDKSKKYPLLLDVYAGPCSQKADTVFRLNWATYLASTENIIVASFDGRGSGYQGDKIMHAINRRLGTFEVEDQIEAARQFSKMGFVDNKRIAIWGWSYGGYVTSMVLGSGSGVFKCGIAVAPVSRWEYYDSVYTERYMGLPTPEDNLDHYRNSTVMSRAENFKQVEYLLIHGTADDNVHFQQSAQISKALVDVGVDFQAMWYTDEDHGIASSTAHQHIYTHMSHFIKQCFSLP
UniProt P27487, 37-766: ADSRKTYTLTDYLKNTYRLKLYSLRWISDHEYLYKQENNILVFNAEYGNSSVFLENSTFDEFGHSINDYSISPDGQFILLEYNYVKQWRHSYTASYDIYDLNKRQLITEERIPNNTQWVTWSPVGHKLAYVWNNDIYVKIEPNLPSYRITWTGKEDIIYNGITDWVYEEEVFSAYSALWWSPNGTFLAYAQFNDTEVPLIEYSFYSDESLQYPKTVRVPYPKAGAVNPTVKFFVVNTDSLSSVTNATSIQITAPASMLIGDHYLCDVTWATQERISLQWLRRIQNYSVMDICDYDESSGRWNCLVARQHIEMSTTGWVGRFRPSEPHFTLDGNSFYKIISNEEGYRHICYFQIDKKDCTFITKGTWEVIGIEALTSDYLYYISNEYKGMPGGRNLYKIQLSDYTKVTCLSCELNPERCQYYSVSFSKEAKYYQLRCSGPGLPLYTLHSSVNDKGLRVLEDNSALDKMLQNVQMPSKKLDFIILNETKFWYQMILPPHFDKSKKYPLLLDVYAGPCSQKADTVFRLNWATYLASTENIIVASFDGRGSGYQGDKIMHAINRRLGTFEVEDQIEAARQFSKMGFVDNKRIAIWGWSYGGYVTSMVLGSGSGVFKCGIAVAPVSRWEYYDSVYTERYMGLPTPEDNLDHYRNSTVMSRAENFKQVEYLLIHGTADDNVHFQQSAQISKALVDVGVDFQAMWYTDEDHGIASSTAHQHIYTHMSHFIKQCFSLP
UniProt P27487, 37-766 N710A: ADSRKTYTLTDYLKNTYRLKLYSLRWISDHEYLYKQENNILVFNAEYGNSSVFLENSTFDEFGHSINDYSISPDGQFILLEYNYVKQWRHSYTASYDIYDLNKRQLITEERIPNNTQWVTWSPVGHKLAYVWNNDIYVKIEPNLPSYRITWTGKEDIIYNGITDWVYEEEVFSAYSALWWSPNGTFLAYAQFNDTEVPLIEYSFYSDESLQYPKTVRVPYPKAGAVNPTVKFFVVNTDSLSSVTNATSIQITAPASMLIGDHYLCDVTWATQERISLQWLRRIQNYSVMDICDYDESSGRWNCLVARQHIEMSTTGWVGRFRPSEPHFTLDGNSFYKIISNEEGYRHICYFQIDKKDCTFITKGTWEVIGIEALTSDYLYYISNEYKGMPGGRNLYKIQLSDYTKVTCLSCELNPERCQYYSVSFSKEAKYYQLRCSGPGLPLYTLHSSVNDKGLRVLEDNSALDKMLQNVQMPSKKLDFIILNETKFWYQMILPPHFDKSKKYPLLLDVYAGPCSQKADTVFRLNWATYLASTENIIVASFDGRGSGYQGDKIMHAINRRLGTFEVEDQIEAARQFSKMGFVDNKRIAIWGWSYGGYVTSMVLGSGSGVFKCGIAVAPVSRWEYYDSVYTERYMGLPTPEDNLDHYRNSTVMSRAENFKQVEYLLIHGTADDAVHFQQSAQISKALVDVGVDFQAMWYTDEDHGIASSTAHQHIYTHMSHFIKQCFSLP
UniProt P27487, 37-766 N710D: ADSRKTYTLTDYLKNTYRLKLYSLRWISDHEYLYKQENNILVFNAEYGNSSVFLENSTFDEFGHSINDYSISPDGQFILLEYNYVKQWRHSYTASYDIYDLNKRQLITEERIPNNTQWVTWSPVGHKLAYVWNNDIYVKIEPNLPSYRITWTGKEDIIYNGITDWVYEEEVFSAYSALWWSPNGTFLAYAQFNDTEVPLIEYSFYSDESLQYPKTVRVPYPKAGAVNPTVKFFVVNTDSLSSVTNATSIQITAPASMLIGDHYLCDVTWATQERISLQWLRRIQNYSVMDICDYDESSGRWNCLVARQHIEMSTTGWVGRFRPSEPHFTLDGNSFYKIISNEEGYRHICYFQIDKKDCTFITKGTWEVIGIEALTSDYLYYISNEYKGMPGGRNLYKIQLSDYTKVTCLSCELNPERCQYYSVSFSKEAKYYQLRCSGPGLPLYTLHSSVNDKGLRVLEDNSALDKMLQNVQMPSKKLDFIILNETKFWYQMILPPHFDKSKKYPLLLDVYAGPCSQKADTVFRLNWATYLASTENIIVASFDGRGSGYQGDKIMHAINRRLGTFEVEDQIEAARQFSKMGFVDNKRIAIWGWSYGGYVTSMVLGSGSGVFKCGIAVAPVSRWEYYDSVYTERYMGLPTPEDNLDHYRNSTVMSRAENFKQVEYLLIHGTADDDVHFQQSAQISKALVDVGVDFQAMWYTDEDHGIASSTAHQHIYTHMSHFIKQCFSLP
UniProt P27487, 37-766 R125A: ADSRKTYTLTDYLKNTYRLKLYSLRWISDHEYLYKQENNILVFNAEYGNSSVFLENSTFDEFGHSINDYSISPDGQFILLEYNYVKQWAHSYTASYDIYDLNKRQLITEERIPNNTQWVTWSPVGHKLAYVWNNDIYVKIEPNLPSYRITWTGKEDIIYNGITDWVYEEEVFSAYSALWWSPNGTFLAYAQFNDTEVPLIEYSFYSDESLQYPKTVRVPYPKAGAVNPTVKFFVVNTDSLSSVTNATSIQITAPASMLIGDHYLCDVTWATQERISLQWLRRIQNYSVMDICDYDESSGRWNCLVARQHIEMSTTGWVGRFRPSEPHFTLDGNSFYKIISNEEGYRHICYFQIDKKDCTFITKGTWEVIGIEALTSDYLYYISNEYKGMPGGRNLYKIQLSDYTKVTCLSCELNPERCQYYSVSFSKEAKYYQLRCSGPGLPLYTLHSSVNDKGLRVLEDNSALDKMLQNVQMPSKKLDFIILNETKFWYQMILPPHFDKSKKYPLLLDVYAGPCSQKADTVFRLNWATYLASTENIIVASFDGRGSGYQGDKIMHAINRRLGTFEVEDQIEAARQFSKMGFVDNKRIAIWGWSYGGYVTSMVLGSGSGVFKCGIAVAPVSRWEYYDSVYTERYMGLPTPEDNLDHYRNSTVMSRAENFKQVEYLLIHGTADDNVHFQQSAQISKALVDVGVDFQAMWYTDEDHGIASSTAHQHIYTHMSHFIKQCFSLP
UniProt P27487, 37-766 E205A: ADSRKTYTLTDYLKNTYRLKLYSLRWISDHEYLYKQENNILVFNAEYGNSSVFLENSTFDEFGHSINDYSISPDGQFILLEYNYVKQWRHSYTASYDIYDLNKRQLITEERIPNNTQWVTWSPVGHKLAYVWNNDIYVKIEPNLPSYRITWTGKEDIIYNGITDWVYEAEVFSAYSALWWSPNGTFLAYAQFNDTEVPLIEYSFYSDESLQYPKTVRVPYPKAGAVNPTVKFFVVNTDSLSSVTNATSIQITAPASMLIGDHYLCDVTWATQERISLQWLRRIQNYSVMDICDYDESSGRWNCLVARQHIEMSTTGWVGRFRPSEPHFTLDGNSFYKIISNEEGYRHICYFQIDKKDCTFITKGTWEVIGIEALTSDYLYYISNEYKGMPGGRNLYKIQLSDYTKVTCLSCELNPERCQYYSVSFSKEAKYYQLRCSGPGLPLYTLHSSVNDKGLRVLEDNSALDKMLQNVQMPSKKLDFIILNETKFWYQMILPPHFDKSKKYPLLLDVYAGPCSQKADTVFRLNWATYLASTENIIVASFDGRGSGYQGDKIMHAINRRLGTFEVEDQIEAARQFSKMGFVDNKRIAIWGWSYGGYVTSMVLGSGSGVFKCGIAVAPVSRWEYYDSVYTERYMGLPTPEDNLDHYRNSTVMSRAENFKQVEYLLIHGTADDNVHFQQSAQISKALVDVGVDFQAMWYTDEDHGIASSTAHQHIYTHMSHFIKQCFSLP

Experiment in all cases: IC50 determination with substrate Gly-Pro-AMC
Common to all, as to type: biochemical

For one test, the target named is T1, DP4 variant R125K (Homo sapiens, UniProt P27487, R125K).
T1 construct: His(6)-37-766 hDP4 containing fractions were concentrated to 1 ml; made in house; host or cells: Pichia pastoris X-33 (vector pPICZα C, secreted)
Here is the method:
(§1) The reactions were performed in 100 mM HEPES buffer, pH 7.6 at 30°C in a total assay volume of 270 μl by using 96-well plates. […] Fluorescence was detected with a […]luor Plus (TECAN) at an excitation wavelength of 380 nm and an emission wavelength of 465 nm.

In a further test the target is T2, DP4 variant N710Q (Homo sapiens, UniProt P27487, N710Q).
T2 construct: His(6)-37-766 hDP4 containing fractions were concentrated to 1 ml; made in house; host or cells: Pichia pastoris X-33 (vector pPICZα C, secreted)
As to the method:
as §1

Another test concerns the target T3, DP4 variant E206A (Homo sapiens, UniProt P27487, E206A).
T3 construct: His(6)-37-766 hDP4 containing fractions were concentrated to 1 ml as described above; His6 (N); made in house; host or cells: Pichia pastoris X-33, vector pPICZα C (secreted)
Here is the method: as §1

Another test deals with T4, wild type DP4 (Homo sapiens, UniProt P27487).
T4 construct: His(6)-37-766 hDP4 containing fractions were concentrated to 1 ml; made in house; host or cells: Pichia pastoris X-33 (vector pPICZα C, secreted)
As to the method:
as §1

In a further test the target is T5, DP4 variant N710A (Homo sapiens, UniProt P27487, N710A).
T5 construct: His(6)-37-766 hDP4 containing fractions were concentrated to 1 ml; made in house; host or cells: Pichia pastoris X-33 (vector pPICZα C, secreted)
As to the method: as §1

A further test addresses T6, DP4 variant N710D (Homo sapiens, UniProt P27487, N710D).
T6 construct: His(6)-37-766 hDP4 containing fractions were concentrated to 1 ml; made in house; host or cells: Pichia pastoris X-33 (vector pPICZα C, secreted)
Here is the method:
as §1

In another test the target is T7, DP4 variant R125A (Homo sapiens, UniProt P27487, R125A).
T7 construct: His(6)-37-766 hDP4 containing fractions were concentrated to 1 ml; made in house; host or cells: Pichia pastoris X-33 (vector pPICZα C, secreted)
Here is the method:
as §1

The next test has as its target T8, DP4 variant E205A (Homo sapiens, UniProt P27487, E205A).
T8 construct: His(6)-37-766 hDP4 containing fractions were concentrated to 1 ml as described above; His6 (N); made in house; host or cells: Pichia pastoris X-33, vector pPICZα C (secreted)
Here is the method:
as §1

A word on the IC50: it is the concentration that gives 50% inhibition. For the molecule `CC[C@H](C)[C@H](N)C(=O)N1CCC[C@H]1C(=O)N[C@H](C(=O)O)[C@@H](C)CC` [Diprotin A, Ile-Pro-Ile], the 50% inhibitory concentration (IC50) is 65 µM at DP4 variant R125K; 5100 µM at DP4 variant N710Q (read-out: IC50); more than 10000 µM against DP4 variant E206A; 2.2 µM on wild type DP4; more than 10000 µM on DP4 variant N710A; 1100 µM on DP4 variant N710D. Moreover, the IC50 turned out to be 400 µM against DP4 variant R125A and 1400 µM on DP4 variant E205A.
As for `CC(C)C[C@H](NC(=O)[C@@H]1CCCN1C(=O)[C@@H](N)C(C)C)C(=O)O` [Diprotin B, Val-Pro-Leu], the IC50 against DP4 variant R125K was 100 µM; against DP4 variant N710Q (N710Q, 100 mM HEPES-buffer (pH 7.6), T = 30 °C, substrate Gly-Pro-AMC in the range of Km) it was “No inhibition”; on DP4 variant E206A it was more than 10000 µM; at wild type DP4, 37 µM; against DP4 variant N710A, more than 10000 µM; against DP4 variant N710D, 2800 µM. Further, the half-inhibitory concentration (IC50) against DP4 variant R125A came out at 200 µM; at DP4 variant E205A, 4100 µM.
